Measured affinities in a library of Ab-91 heavy chain variants

Reference: Engelhart et al. 2022, doi:10.1038/s41597-022-01779-4. File: FLAb, binding data.

Target peptide (SARS-CoV-2 spike, HR2 region): PDVDLGDISGINAS

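The starting antibody came from a phage panning campaign against this peptide. AAYL51 was designed without a model: most single CDR substitutions and a random sample of double and triple ones. AlphaSeq pools MATa yeast showing the antibodies with MATalpha yeast showing the peptide. After mating in shaken culture at 30 °C for 16 h, diploids were selected and their barcode pairs sequenced. A regression on co-assayed BCL2-family reference pairs converts the normalised counts of each replicate to an apparent Kd. The assay was run in three technical replicates.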

Parent scFv Ab-91: VL joined to VH by a (GGGGS)3 linker. Changes lie in the heavy chain CDRs alone.
VL: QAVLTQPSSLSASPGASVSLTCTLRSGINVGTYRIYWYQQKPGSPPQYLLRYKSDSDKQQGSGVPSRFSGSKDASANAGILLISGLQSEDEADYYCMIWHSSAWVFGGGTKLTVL
VH: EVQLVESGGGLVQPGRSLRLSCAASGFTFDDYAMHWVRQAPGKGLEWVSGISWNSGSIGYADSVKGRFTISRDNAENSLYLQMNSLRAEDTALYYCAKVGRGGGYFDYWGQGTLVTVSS

Changes read parent residue, position, new residue, counted from the first residue of the VH shown.
Every variant below is changed at D62 of the VH (sequential numbering).
Numbers give log10(Kd / nM), so 0 is 1 nM and 3 is 1 µM. Smaller is tighter.
Averages over replicates are reported, and they cover detected replicates only.
"nd" marks a missing value. The strain was present, yet no cells mated with the target were sequenced in that replicate, which points to weak or no binding.
Nonspecific signal, from three strains lacking the peptide, appeared in 21% of pairings of library AAYL51, centred on 4.54 (5% of these signals below 3.26); values are not corrected for it. Also given: how often the same scFv was detected with the empty control strains.
For reference, the parent read 1.86 as the reference entry and 0.88 as a member of this library.

The variant M34W D62F G104K gave nd, nd, nd (controls 0 of 9). With N54F D62Q V99R the result was 4.79, 3.94, nd (mean 4.36; controls 2 of 9). The variant W53M D62S Y108S showed 0.64, 0.64, -0.07 (mean 0.40; controls 6 of 9). For A33P D62N, the assay gave 3.00, 2.52, 3.71 (mean 3.08; controls 0 of 9). The variant S57C D62Y V64W showed nd, nd, nd (controls 0 of 9). With S52T D62W Y108Q the result was 4.77, nd, nd (controls 5 of 9). The variant T28D D62C G104L showed 2.38, 2.54, 2.66 (mean 2.53; controls 2 of 9). With A61Y D62L the result was nd, nd, nd (controls 1 of 9). For F29H D62F S63K, the assay gave nd, nd, nd (controls 0 of 9).

With F27N G56W D62Y the result was nd, 3.87, nd (controls 5 of 9). The variant F27G D62I gave 4.20, 4.57, nd (mean 4.39; controls 1 of 9). The variant D62C V64I K65W showed 6.84, nd, nd (controls 5 of 9). For S55P D62N Y108H, the assay gave nd, nd, nd (controls 0 of 9). For D30L D31N D62Y, the assay gave nd, nd, nd (controls 1 of 9). The variant N54M D62M gave nd, 4.17, nd (controls 1 of 9). For S52I D62H G102P, the assay gave nd, nd, nd (controls 0 of 9). With Y32I A61G D62P the result was 4.70, nd, nd (controls 3 of 9). The variant Y60H D62Y G102R gave 4.69, nd, nd (controls 1 of 9).

The variant G50Y D62T R101W gave nd, nd, nd (controls 0 of 9). With G56M A61K D62W the result was nd, nd, nd (controls 0 of 9). The variant D62K showed 3.17, nd, nd (controls 4 of 9). The variant I58P G59A D62E showed 5.13, nd, nd (controls 1 of 9). For D30H M34N D62L, the assay gave nd, 4.26, nd (controls 2 of 9). With I51F D62H the result was nd, nd, nd (controls 3 of 9). The variant S57L D62R G104S showed 3.51, nd, nd (controls 1 of 9). The variant T28G M34D D62P gave 4.70, nd, 5.60 (mean 5.15; controls 3 of 9). For D62V G100Q D107F, the assay gave nd, 5.65, nd (controls 4 of 9).

The variant T28W D62P gave nd, nd, 3.30 (controls 2 of 9). For G50D D62Q V64E, the assay gave 3.83, nd, nd (controls 2 of 9). The variant W53T D62E V99C showed nd, nd, nd (controls 0 of 9). The variant T28D W53G D62K gave nd, nd, 2.19 (controls 1 of 9). The variant F27M G56N D62M gave nd, nd, nd (controls 0 of 9). For S55I D62W G104F, the assay gave nd, nd, nd (controls 0 of 9). The variant G50I S52F D62K showed 5.65, nd, nd (controls 2 of 9). The variant D62N V64A G103K gave 3.36, 4.43, 5.34 (mean 4.37; controls 2 of 9). The variant D62G K65I G103A gave 3.10, 3.26, 2.83 (mean 3.06; controls 1 of 9).

For S55D D62Q V64P, the assay gave nd, nd, nd (controls 1 of 9). The variant A33V D62F V64I gave nd, nd, nd (controls 0 of 9). For D31K D62C, the assay gave 3.84, nd, nd (controls 4 of 9). The variant G26N A33H D62C showed nd, nd, nd (controls 2 of 9). For Y32L D62Y S63E, the assay gave nd, nd, nd (controls 2 of 9).

From the list, the first 6 with no signal in any replicate:

| changes | replicates, log10 nM | mean, log10 nM | signal with controls |
|---|---|---|---|
| M34W D62F G104K | nd, nd, nd | nd | 0 of 9 |
| S57C D62Y V64W | nd, nd, nd | nd | 0 of 9 |
| A61Y D62L | nd, nd, nd | nd | 1 of 9 |
| F29H D62F S63K | nd, nd, nd | nd | 0 of 9 |
| S55P D62N Y108H | nd, nd, nd | nd | 0 of 9 |
| D30L D31N D62Y | nd, nd, nd | nd | 1 of 9 |